Source: article PMC8999133, “Resemblance-Ranking Peptide Library to Screen for Binders to Antibodies on a Peptidomic Scale” (International Journal of Molecular Sciences, 2022)

System: rituximab (RTX)
Assay: First screen of the resemblance-ranking peptide library with RTX, fluorescent immunostaining
Format: binding
Protocol: This value correlates with a presumptive “active” level of up 20 µg/mL in anti-lymphoma treatment. We assumed that the strength of the interaction is correlated with the intensity of fluorescent signals from secondary antibodies.
Peptide microarrays: A peptide library of 160,000, peptides as well other peptide microarrays for the substitutions and the KD analysis, were fabricated via the ultra-high-density peptide microarray technology of AXXELERA (Karlsruhe, Germany). The AXXELERA technology allows for the 30 µm-sized square peptide spots with a pitch of 60 µm that corresponds to ca. 28,000 spots/cm^2.
Immunostaining: Peptide microarrays were incubated with the monoclonal anti-CD20 antibody rituximab (Sigma-Aldrich, Steinheim, Germany) with concentrations depending on the type of experiment, diluted in PBS-T (Phosphate Buffered Saline with Tween) overnight at 4 °C. A rituximab concentration of 30 µg/mL was used for the first screen of the entire resemblance-ranking peptide library. Then, the peptide chips were stained with the fluorescently labeled secondary anti-human-IgG antibodies (Jackson ImmunoResearch, Philadelphia, PA, USA). The signals from the spots were read out with the confocal scanner Innoscan 1100 AL. The scans were performed in the red channel (635 nm), with a resolution of 2 µm/pixel, a speed of 35 µm/s, and a PMT gain of 9.

Sequence: EPANPSEKNS
- number of peptides from the resemblance-ranking library that delivered stronger signals (RTX 30 µg/mL, library of 160,000 peptides): 126,756
- fluorescent signal when incubated with RTX (peptide chip, RTX 30 µg/mL in PBS-T overnight at 4 °C, fluorescent secondary anti-human-IgG, 635 nm): signal at the noise level
